Measurements as given in article PMC3969666 (Pharmacognosy Magazine, 2014).

What was measured:
[1] = ref 7 (Li et al., 2011); cited from earlier work
[2] = system: Caco-2 cell; experiment: Caco-2 cell transport of PR; type: in vitro ADME; details: unpublished

In the case of Phillyrin [PR], the “absorption in the gastrointestine” value [1] is given as “neither carried out in the gastrointestine” and the “apically loaded PR retained on the apical side” value [2] is given as “about 100%”.
